Compound activity: PubChem BioAssay, Broad Institute
Cneo AK release: Cryptococcus neoformans lysis via adenylate kinase release. AID 651654. C. neoformans lysis, adenylate kinase release luminescence, 4 h; normalised: neutral wells 0, clomiphene wells 100. lysis activity, % at 15 µM. 360,000 compounds, 0.2% hits;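 active means mean lysis activity across replicates of at least 80%, whatever share of replicates individually reach that level; inactive means mean lysis activity below 80%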
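Assay system: Cryptococcus neoformans yeast cells / Dosing: single-point compound dose / Timing: 4 h at 37 °C static, read 1 h later / Measured by: luminescence of released adenylate kinase using an AK detection reagent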
E-sel inducer: induces E-selectin expression in human endothelial cells. P16581. HUVEC E-selectin immunofluorescence imaging; normalized: neutral wells 0, TNF-alpha wells 100. activation, % at 7.58 µM. 260,000 compounds, 0.37% hits. AID 686992;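 active means mean E-selectin-positive cell signal at least 10% of the positive control, reached in at least 60% of replicates, without over 20% cell loss; inconclusive means no rule given, readout overlaps actives, possibly toxicity-flagged; inactive means the rest, including those meeting only one limit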
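Read-out: % PE-positive cells | Test system: HUVEC | Doses: One compound dose added by pin transfer | Buffer or medium: EGM-2 over gelatin coat | Signal: Immunofluorescence imaging | Benchmarks: TNF-alpha, DMSO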
Yeast UUG start: yeast start codon fidelity modulation | S. cerevisiae UUG-firefly luciferase reporter, luminescence/redox ratio | activity score, % at 18.7 µM | 0.13% of 350,000 active | AID 602363;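 active means replicate mean at a twofold rise or more, about +100% in these data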;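 further: firefly luciferase made from a UUG start codon reports start codon fidelity; reporter light over untreated wells divided by growth signal over untreated wells; some hits fall short of that in this replicate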
DENV2 CPE rescue: protects cells from dengue virus 2 cytopathic effect; 350,000 compounds, 1.7% hits; DENV2-infected cells, cytopathic effect rescue, plate reader; AID 651640; CPE inhibition, % at 9.99 µM; in the data active means CPE inhibition above about 20%, passing the limit was not always enough; inconclusive means no clear call, values can overlap the other calls; tested in BHK-21 cells;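 further: 0% = median of neutral control wells and 100% = median of positive control wells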
* = called active by the depositor; ? = inconclusive; / = not tested or not shown. The list is not random: actives were taken first. Their share in the collection is about 1.8%.

1	C[C@H]1CN([C@@H](C)CO)C(=O)c2cc(C#CC3CCCC3)cnc2O[C@H]1CN(C)S(C)(=O)=O
2	CCCCC[C@@H](/C=C/C1C(=O)C=C[C@H]1C/C=C\CCCC(=O)OC)OC(C)=O (stereo not given in full)
3	Cc1ccc(/C(O)=C2\C(=O)C(=O)N(C)C2c2ccccc2)cc1 (stereo not given)
4	CCOC(=O)N1CCC(NC(=O)c2cccc3c2C(=O)N(CCOC)C3)CC1
5	CN1c2ccc(-c3ccccc3)cc2[C@@H]2[C@@H](CCN2C(=O)Cc2ccccn2)[C@@H]1CO
6	CN1c2ccc(-c3ccc(F)cc3)cc2[C@@H]2[C@@H](CCN2C(=O)Cc2ccccn2)[C@@H]1CO
7	COc1cccc(NC(=O)N2CC[C@@H]3[C@H]2c2cc(-c4cccc(OC)c4)ccc2N(C)[C@H]3CO)c1
8	COc1cccc(-c2ccc3c(c2)[C@@H]2[C@@H](CCN2C(=O)c2ccc(F)cc2)[C@H](CO)N3C)c1

Compound	1	2	3	4	5	6	7	8
Cneo AK release	-1.7	-2.8	-0.1	-1.1	-1.8	-1.3	/	2.2
E-sel inducer	0.1	/	0.2	-2.3	-0.5	-0.8	0.1	-0.6
Yeast UUG start	-0.5	-1.1	-12.8	-6.1	0.9	11.0	/	-7.9
DENV2 CPE rescue	11.4	25.4*	39.4*	62.5*	22.3*	?	68.3*	23.9*

9	CN1c2ccc(-c3ccccc3)cc2[C@H]2[C@H](CCN2C(=O)c2ccc(F)cc2)[C@H]1CO
10	CN1c2ccc(-c3cccc(F)c3)cc2[C@H]2[C@H](CCN2C(=O)c2ccccc2F)[C@H]1CO
11	CO[C@H]1CN(C)C(=O)c2cc(NC(C)=O)ccc2OC[C@@H](C)N(Cc2nccs2)C[C@H]1C
12	CO[C@H]1CN(C)C(=O)c2ccc(NC(C)=O)cc2OC[C@H](C)N(Cc2cc(F)ccc2F)C[C@@H]1C
13	CO[C@H]1CN(C)C(=O)c2ccc(NC(C)=O)cc2OC[C@@H](C)N(Cc2cc(F)ccc2F)C[C@H]1C
14	CO[C@@H]1CN(C)C(=O)c2cc(NC(C)=O)ccc2OC[C@H](C)N(Cc2nccs2)C[C@@H]1C
15	COCC(=O)Nc1ccc2c(c1)C(=O)N(C)C[C@@H](OC)[C@@H](C)CN(Cc1cccc(F)c1)[C@H](C)CO2
16	CO[C@@H]1CN(C)C(=O)c2cc(NC(=O)NC(C)C)ccc2OC[C@H](C)N(Cc2ccccn2)C[C@@H]1C

Compound	9	10	11	12	13	14	15	16
Cneo AK release	-10.8	-11.5	-3.2	-1.2	57.0	-4.1	-2.8	0.2
E-sel inducer	-0.5	-0.8	0.2	3.6	-0.4	-0.1	-0.3	0.0
Yeast UUG start	-31.6	12.4	-7.3	-4.9	37.0	-8.7	1.2	-17.5
DENV2 CPE rescue	-0.8	69.4*	4.6	31.7*	-0.1	58.7*	-6.9	73.5*

17	COCC(=O)Nc1ccc2c(c1)OC[C@H](C)N(Cc1cccc(F)c1)C[C@H](C)[C@@H](OC)CN(C)C2=O
18	CO[C@@H]1CN(C)C(=O)c2cc(NC(=O)NC(C)C)ccc2OC[C@H](C)N(Cc2ccccn2)C[C@H]1C
19	COc1ccc(S(=O)(=O)Nc2ccc3c(c2)C(=O)N([C@@H](C)CO)C[C@@H](C)[C@H](CN(C)C(=O)Nc2ccc4c(c2)OCO4)OCCCC[C@H](C)O3)cc1
20	C[C@@H]1CN([C@@H](C)CO)C(=O)c2cc(NC(=O)CCCN(C)C)ccc2O[C@H]1CN(C)Cc1ccc2c(c1)OCO2
21	CO[C@H]1CN(C)C(=O)c2ccc(NC(C)=O)cc2OC[C@@H](C)N(Cc2cccc(F)c2)C[C@@H]1C
22	CO[C@H]1CN(C)C(=O)c2cc(NC(C)=O)ccc2OC[C@H](C)N(Cc2cccc(F)c2)C[C@@H]1C
23	COc1ccc2c3c(n(C)c2c1)[C@H](CO)N(C(=O)C1CCCCC1)CC31CCN(C(=O)Nc2cccc(F)c2)CC1
24	COc1ccc(NC(=O)Nc2ccc3c(c2)C(=O)N([C@@H](C)CO)C[C@@H](C)[C@H](CN(C)Cc2ccc4c(c2)OCO4)OCCCC[C@H](C)O3)cc1

Compound	17	18	19	20	21	22	23	24
Cneo AK release	/	-2.2	-2.1	/	/	86.8*	/	0.3
E-sel inducer	-0.3	-0.2	-0.1	-0.7	0.0	-0.1	-0.4	0.2
Yeast UUG start	/	-14.2	9.3	/	/	13.9	/	27.5
DENV2 CPE rescue	24.7*	-2.1	-2.1	4.8	/	2.5	-7.0	2.7

25	O=C(Cn1c2[n+](c3ccccc31)CC(O)CS2)c1ccccc1 (stereo not given)
26	C[C@H]1CN([C@@H](C)CO)C(=O)c2cccc(NC(=O)NC3CCCCC3)c2O[C@H]1CN(C)S(C)(=O)=O
27	O=C1c2ccccc2NC(c2ccc(-c3ccccc3F)o2)N1O (stereo not given)
28	O=C1c2ccccc2NC(c2ccc(-c3cccc(F)c3)o2)N1O (stereo not given)
29	CC(C)NC(=O)Nc1ccc2c(c1)C(=O)N([C@H](C)CO)C[C@@H](C)[C@H](CN(C)Cc1ccc(C(F)(F)F)cc1)OCCCC[C@@H](C)O2
30	CC(C)NC(=O)Nc1ccc2c(c1)C(=O)N([C@H](C)CO)C[C@@H](C)[C@@H](CN(C)Cc1ccc(C(F)(F)F)cc1)OCCCC[C@@H](C)O2
31	CO[C@@H](CN(C)C(=O)c1ccc2c(c1)OCO2)[C@@H](C)CN([C@H](C)CO)S(=O)(=O)c1ccc(C)cc1
32	CN(C)C(=O)[C@H]1[C@H](CO)[C@H]2Cn3c(ccc(C4=CCCCC4)c3=O)[C@@H]1N2Cc1ccncc1

Compound	25	26	27	28	29	30	31	32
Cneo AK release	/	-1.2	-1.5	1.5	-3.9	-0.1	9.6	-1.1
E-sel inducer	/	/	-0.1	0.2	/	/	0.0	-0.2
Yeast UUG start	/	2.0	-23.2	-18.7	6.0	4.1	/	/
DENV2 CPE rescue	57.8*	0.0	25.0*	-3.3	31.5*	41.6*	-2.7	35.7*

Whole records from above. Order of values: Cneo AK release, E-sel inducer, Yeast UUG start, DENV2 CPE rescue
CC(C)NC(=O)Nc1ccc2c(c1)C(=O)N([C@H](C)CO)C[C@@H](C)[C@H](CN(C)Cc1ccc(C(F)(F)F)cc1)OCCCC[C@@H](C)O2 as listed: -3.9, /, 6.0, 31.5*
O=C1c2ccccc2NC(c2ccc(-c3ccccc3F)o2)N1O (stereo not given) as listed: -1.5, -0.1, -23.2, 25.0*
CO[C@@H](CN(C)C(=O)c1ccc2c(c1)OCO2)[C@@H](C)CN([C@H](C)CO)S(=O)(=O)c1ccc(C)cc1 as listed: 9.6, 0.0, /, -2.7
C[C@H]1CN([C@@H](C)CO)C(=O)c2cccc(NC(=O)NC3CCCCC3)c2O[C@H]1CN(C)S(C)(=O)=O as listed: -1.2, /, 2.0, 0.0

Following part.
33	CN(C)C(=O)[C@@H]1[C@@H](CO)[C@@H]2Cn3c(ccc(C4=CCCC4)c3=O)[C@H]1N2S(=O)(=O)c1cn(C)cn1
34	O=C(C[C@H]1C=C[C@@H](NC(=O)c2ccc3c(c2)OCO3)[C@@H](CO)O1)NCc1ccc(Cl)cc1
35	COc1ccc2c3c(n(C)c2c1)[C@H](CO)N(C(C)=O)CC31CN(C(=O)c2ccccc2)C1
36	O=C1C(Cl)=C(N2CCCC2)C(=O)N1c1ccc(F)cc1
37	O=C1C(Cl)=C(N2CCCCCC2)C(=O)N1c1ccc(Cl)cc1
38	Cc1cccc(NC(=O)NNS(=O)(=O)c2ccc(F)cc2)c1
39	CC(=O)Nc1ccc(S(=O)(=O)NNc2cccc(C)c2)cc1
40	CC[C@]12c3[nH]c4cc(CCC(=O)N(C)C)ccc4c3CCN1C(=O)[C@@H](CC(=O)NCCC1=CCCCC1)C[C@@H]2C(=O)N1CCN(C(=O)C2CC2)CC1
41	COCCCNC(=O)C[C@H]1C[C@H](C(=O)N(C(C)C)C(C)C)[C@@]2(C)c3[nH]c4cc(CCC(=O)N(C)C)ccc4c3CCN2C1=O
42	CC[C@]12c3[nH]c4ccc(Cl)cc4c3CCN1C(=O)[C@@H](CC(=O)NCCC1=CCCCC1)C[C@@H]2C(=O)N1CCN(C(=O)C2CC2)CC1
43	CC[C@]12c3[nH]c4cc(CCC(=O)N(C)C)ccc4c3CCN1C(=O)[C@@H](CC(=O)NCCC1=CCCCC1)C[C@@H]2C(=O)N1CCN(C(=O)c2ccco2)CC1

Compound	33	34	35	36	37	38	39	40	41	42	43
Cneo AK release	0.7	/	/	6.7	-4.7	/	-1.0	-2.0	0.0	0.7	-0.1
E-sel inducer	-0.1	0.6	-0.2	-0.1	-0.2	-1.7	57.2*	-0.7	/	-0.1	/
Yeast UUG start	/	/	/	5.0	-15.9	/	-25.5	3.5	8.5	15.8	2.8
DENV2 CPE rescue	22.3*	12.0	9.6	9.7	75.9*	/	-2.9	11.6	36.8*	16.3	24.9*
